Data on 13 molecules can be found in US6656911B2, “Serine protease inhibitors” (Cortech, Inc., priority 1994, dated 2003).

The chains behind the UniProt entries cited, without tags or fusion partners. Residues count along the entry.
UniProt P08246, 30-267 limits assumed: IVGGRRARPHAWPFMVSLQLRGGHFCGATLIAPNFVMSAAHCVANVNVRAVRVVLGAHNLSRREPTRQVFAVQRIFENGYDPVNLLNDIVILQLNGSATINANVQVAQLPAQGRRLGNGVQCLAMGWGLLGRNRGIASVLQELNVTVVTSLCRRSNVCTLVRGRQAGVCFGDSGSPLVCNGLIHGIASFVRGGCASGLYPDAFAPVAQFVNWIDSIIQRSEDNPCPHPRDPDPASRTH

In the test the target is human neutrophil elastase (HNE) (Homo sapiens, UniProt P08246). Put plainly: HNE Ki of CE compounds, tested as described in WO 96/16080. It counts as biochemical. The settings on record: read-out: HNE Ki.
`COc1ccc(C(=O)N[C@H](C(=O)N2CCC[C@H]2C(=O)N[C@H](C(=O)c2noc(Cc3cccc(C(F)(F)F)c3)n2)C(C)C)C(C)C)cc1`: the Ki (usually a dissociation constant, usually derived from enzyme kinetics or from competition with a known ligand) turned out to be 0.13 nM.

For the molecule `CC(C)[C@H](NC(=O)[C@@H]1CCCN1C(=O)[C@@H](NC(=O)N1CCOCC1)C(C)C)C(=O)c1noc(CCN(C)C)n1`, the Ki was found to be 126 nM.

For the molecule `CC(C)[C@H](NC(=O)CN(Cc1ccccc1)C(=O)[C@@H](NC(=O)OCc1ccccc1)C(C)C)C(=O)c1noc(Cc2cccc(C(F)(F)F)c2)n1`, the Ki is 0.98 nM.

Consider `CC(C)[C@H](NC(=O)[C@@H]1CCCN1C(=O)[C@@H](NC(=O)N1CCOCC1)C(C)C)C(=O)c1noc(CCN2CCOCC2)n1`, for which the Ki stood at 85 nM.

`CC(=O)N1CC(=O)N(CC(=O)N[C@H](C(=O)c2nnc(Cc3cccc(C)c3)o2)C(C)C)C(Cc2ccccc2)C1=O` (stereo partly shown): the Ki was determined as 51 nM.

For the molecule `COc1cccc(Cc2nc(C(=O)[C@@H](NC(=O)[C@@H]3CCCN3C(=O)[C@@H](NC(=O)OCc3ccccc3)C(C)C)C(C)C)no2)c1`, the inhibition constant Ki stood at 0.5 nM.

`COC(=O)CCc1nc(C(=O)[C@@H](NC(=O)[C@@H]2CCCN2C(=O)[C@@H](NC(=O)OCc2ccccc2)C(C)C)C(C)C)no1`: the Ki worked out at 7.7 nM.

As to `CC(C)[C@H](NC(=O)[C@@H]1CCCN1C(=O)[C@@H](NC(=O)OCc1ccccc1)C(C)C)C(=O)c1noc(Cc2cccc(C(F)(F)F)c2)n1`, the Ki was found to be 0.2 nM.

For `Cc1cccc(Cc2nnc(C(=O)C(C)(C)NC(=O)[C@@H]3CCCN3C(=O)[C@@H](NC(=O)OCc3ccccc3)C(C)C)o2)c1`, the Ki was found to be 73 nM.

As for `CC(C)[C@H](NC(=O)[C@@H]1CCCN1C(=O)[C@@H](NC(=O)OCc1ccccc1)C(C)C)C(=O)c1noc(CC23CC4CC(CC(C4)C2)C3)n1`, the Ki came to 1.5 nM.

On to `CC(C)[C@H](NC(=O)[C@@H]1CCCN1C(=O)[C@@H](NC(=O)OCc1ccccc1)C(C)C)C(=O)c1noc(CCN(C)C)n1`, for which the Ki amounted to 12.4 nM.

For the molecule `CC(C)[C@H](NC(=O)[C@@H]1CCCN1C(=O)[C@@H](NC(=O)OCc1ccccc1)C(C)C)C(=O)c1noc(CCN2CCOCC2)n1`, the Ki came out at 6.3 nM.

`CC(C)[C@H](NC(=O)[C@@H]1CCCN1C(=O)[C@@H](NC(=O)OCc1ccccc1)C(C)C)C(=O)c1noc(CCCc2ccccc2)n1`: the Ki is 1.84 nM.
